Reference: patent US20050048073A1, “Methods of determining west nile virus epitopes and method of using the same” (priority 2001, published 2005)

Protein sequences, listed by entry. Tags and fused reporters are not part of them. Residues count along the entry.
UniProt P01889, 25-362: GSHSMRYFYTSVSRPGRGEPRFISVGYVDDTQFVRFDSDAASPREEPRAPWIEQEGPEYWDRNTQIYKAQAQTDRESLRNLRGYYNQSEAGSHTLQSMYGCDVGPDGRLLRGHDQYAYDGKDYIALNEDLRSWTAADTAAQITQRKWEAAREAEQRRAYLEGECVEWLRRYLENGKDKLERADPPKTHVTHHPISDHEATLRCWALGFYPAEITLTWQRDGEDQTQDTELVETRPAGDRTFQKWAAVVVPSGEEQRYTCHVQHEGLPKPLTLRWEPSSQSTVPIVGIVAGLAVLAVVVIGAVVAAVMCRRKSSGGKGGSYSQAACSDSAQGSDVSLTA

Target: HLA B*07 (Homo sapiens, UniProt P01889)
Assay: T2B7 binding assay (stabilization of HLA B*07 on TAP-deficient T2 cells, FACS)
Protocol: Triplicate wells of peptide at 10, 20, 200 ug/ml were evaluated in each of the T2 B7 binding assays; each assay was repeated 4 times. […] The “binding score” column provides the numerical sum of all the positive assays in the binding summary column.
The T2B7 binding assay method is well described in the literature and operational in the laboratory. This assay relies on the ability of exogenously added peptides to stabilize the class I MHC/beta 2 microglobulin structure on the surface of transporters associated with antigen processing (TAP)-deficient cell lines. Briefly, HLA B*07 T2 cell lines were prepared by incubating overnight (16 hours) at 26° C. Just prior to the binding assay these cells were washed twice in serum-free media. Solutions of the test peptides at three concentrations (final concentration of 10, 20, and 200 ug/ml in RPMI 1640 (Sigma, St. Louis, Mo.)) were plated in triplicate wells of a 96 well, round-bottom assay plate (Beckton Dickinson, Lincoln Park, N.J.). Sixteen wells containing cells without peptide were included in each plate, serving as the no-peptide control (background control) for the assay.
100,000 cells were added to each well, and the plates were then incubated for four hours at 37° C., 5% CO2 The plates were then spun at 110×g for 10 minutes at 4° C., supernatant is discarded and the remaining cells are re-suspended. One hundred uL of diluted primary antibody-containing hybridoma supernatant (1:10 dilution of ME1 supernatant produced by HB-119 cell line from ATCC) in staining buffer (PBS, 5% FBS, 0.1% sodium azide) was added to all of the wells except 8 wells per assay plate (each containing 200 ug/ml of one study peptide, these wells served as controls for non-specific binding of secondary antibody). Primary antibody was incubated with the peptide-pulsed cells for 30 minutes at 4° C. After washing three times, the cells were re-suspended, and 100 uL of a 1:250 dilution of FITC-labeled secondary antibody (FITC labeled Goat F(ab′)2 Anti-mouse IgG (H+L) from Caltag) in staining buffer were added to all wells. The plates were incubated for 30 minutes at 4° C., and subsequently washed three times. The contents of each well were then resuspended in 200 uL of fixing buffer (PBS, 1% paraformaldehyde), and aliquoted into FACS tubes.
The 16 negative control wells in each plate contained no peptide but did contain cells, primary antibody and secondary antibody. […]
Following fixing, the presence of fluorescent secondary antibody on the surface of T2 cells (gated to the appropriate cell size) was measured at 488 nm on a FACScan flow cytometer (Becton-Dickinson, New Jersey). The mean linear fluorescence […] of 10,000 events was measured and compared to the background fluorescence of cells plated in (no peptide) control wells. […]

AAKKKGASLL [WNB7 006]
Avg. Fold Inc. @ 200 (fold increase over background, peptide at 200 ug/ml): 1.2 | Avg. MFI 200 (mean fluorescence index, peptide at 200 ug/ml): 708.1 | Binding number (binding score) (numerical sum of all the positive assays): 4 | Binding strength (rated strong, moderate, weak or none by number of significantly positive wells): weak (weak binders (binding score of 4))
